Where “and” joins values, the source holds several entries; their conditions need not be identical. Identical values can stand only once.
What follows are compounds tested against Mu-type opioid receptor (Homo sapiens, UniProt P35372) (assay: Binding Assay: The receptor affinity for the human mu-opiate receptor was determined in a homogeneous batch in microtitre plates. For this, dilution series of the particular spirocyclic cyclohexane derivative to be tested were incubated in a total volume of 250 ul for 90 minutes at room temperature with a receptor membrane preparation (15-40 ug protein per 250 ul incubation batch) of CHO-K1 cells,).

The chains behind the UniProt entries cited, without tags or fusion partners.
UniProt P35372, whole entry, looked up: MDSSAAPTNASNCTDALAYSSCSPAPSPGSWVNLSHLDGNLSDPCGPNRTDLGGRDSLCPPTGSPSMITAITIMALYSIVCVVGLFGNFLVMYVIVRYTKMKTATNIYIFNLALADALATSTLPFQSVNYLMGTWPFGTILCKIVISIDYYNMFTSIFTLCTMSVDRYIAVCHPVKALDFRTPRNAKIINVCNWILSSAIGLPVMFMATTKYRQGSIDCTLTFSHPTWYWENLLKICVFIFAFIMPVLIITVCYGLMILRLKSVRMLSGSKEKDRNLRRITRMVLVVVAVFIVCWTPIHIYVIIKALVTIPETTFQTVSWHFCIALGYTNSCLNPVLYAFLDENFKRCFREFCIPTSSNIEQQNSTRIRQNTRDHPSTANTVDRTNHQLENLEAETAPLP

Structure (SMILES) | Ki
CN(C)C1(c2ccc(F)cc2)CCC2(CC1)OCCc1c2[nH]c2ccccc12 (configuration not stated) | 7.2 nM
CC(=O)N1CCc2c([nH]c3ccccc23)C12CCC(c1ccccc1)(N(C)C)CC2 (single isomer, unassigned) | 4.4 nM and 2.2 nM
CC1Cc2c([nH]c3ccc(F)cc23)C2(CCC(c3ccccc3)(N(C)C)CC2)O1 (configuration not stated) | 61 nM
Cc1ccc2[nH]c3c(c2c1)CCNC31CCC(c2ccccc2)(N(C)C)CC1 (configuration not stated) | 15 nM
CC1Cc2c([nH]c3ccc(Br)cc23)C2(CCC(c3ccccc3)(N(C)C)CC2)O1 (configuration not stated) | 14 nM
CN(C)C1(c2ccccc2)CCC2(CC1)OCCc1c2[nH]c2ccc(Br)cc12 (configuration not stated) | 19 nM
CN(C)C1(c2ccc(F)cc2)CCC2(CC1)c1sc3ccccc3c1CC[S+]2[O-] (configuration not stated) | 58 nM

Source: ChEMBL document CHEMBL3886217, “Process for preparing spirocyclic cyclohexane compounds, compositions containing such compounds and method of using such compounds” (2015)
